The list shows a part of the results, in another mix than the full data. Calls of active or inactive are those of the source.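 How the source made its calls: active means inhibition of at least 50%; inactive means the rest.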
These compounds were tested against G-protein coupled receptor 183 (Homo sapiens) (UniProt P32249) (assay: repeat testing of EBI2 arrestin blockers – cell-based, single concentration, luminescence, 7a,25-OHC stimulation, confirmation (AID 651997)). Details: EBI2 beta-arrestin luminescence, 7a,25-OHC antagonism; at 5 µM; active compounds read high.

Chains of the proteins cited; added tags and fusions are not shown.
UniProt P32249, whole entry: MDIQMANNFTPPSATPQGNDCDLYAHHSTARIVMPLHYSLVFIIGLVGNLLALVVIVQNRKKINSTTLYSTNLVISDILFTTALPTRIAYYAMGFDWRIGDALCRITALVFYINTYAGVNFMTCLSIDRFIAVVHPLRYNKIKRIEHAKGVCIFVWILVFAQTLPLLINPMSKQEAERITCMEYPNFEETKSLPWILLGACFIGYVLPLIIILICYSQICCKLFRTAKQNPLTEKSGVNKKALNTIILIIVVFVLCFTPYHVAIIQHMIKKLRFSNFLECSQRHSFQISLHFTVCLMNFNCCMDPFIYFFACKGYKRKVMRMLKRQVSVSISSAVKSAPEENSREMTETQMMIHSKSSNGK

Row | SMILES | inhibition
1 | CN(Cc1cccnc1)C(=O)COc1ccc(Cl)c(Cl)c1.O=[N+]([O-])c1cc([N+](=O)[O-])c(O)c([N+](=O)[O-])c1 | inactive: 32.1%

— PubChem BioAssay AID651997 (Sanford-Burnham Center for Chemical Genomics, 2013)
